This data set deals with pepper plants. The experiment in a line: Pot spray test of defoliants on pepper plants (defoliation rate and fruit abscission rate). The settings on record: in vivo. As to the method: 1 Test temperature and humidity
The defoliant listed in Table 1 is diluted to a certain extent for application. See Table 2 for the active constituents and dilution factor of the defoliant.
100X, 160X and 400X dilution of the C12-C14 fatty alcohol polyoxyethylene (5) ether refers to 100X, 160X and 400X dilution of the defoliant listed in Table 1 containing an active constituent of C12-C14 fatty alcohol polyoxyethylene (5) ether. 160X+1400X dilution of the C12-C14 fatty alcohol polyoxyethylene (5) ether+40% ethephon refers to 160X dilution of the defoliant listed in Table 1 containing an active constituent of C12-C14 fatty alcohol polyoxyethylene (5) ether and mixture with 40% ethephon subject to 1400X dilution, equivalent to that the mixed solution contains 0.5% of C12-C14 fatty alcohol polyoxyethylene (5) ether and 0.029% of ethephon.
A total of 7 treatment plots (including 1 for control group, with water) are arranged for the test, each including 5 pots.
Spray method. […]
The defoliation effect on the pepper plants is analyzed through comparison of the results of the pots before and after application of the reagent and the control group.

This note sets out measurements from US20220408725A1, “NEW DEFOLIANT AND APPLICATION THEREOF” (CHENGDU NEWSUN CROP SCIENCE CO., LTD., priority 2020, published 2022).

In the case of “Isomeric C13 fatty alcohol polyoxyethylene (5) ether [Treatment 4]”, the “Fruit abscission rate 3 days after application” value is listed as 0% and the “Fruit abscission rate 5 days after application” value stood at 0%.
